The chains behind the UniProt entries cited, without tags or fusion partners.
UniProt Q87T56, whole entry: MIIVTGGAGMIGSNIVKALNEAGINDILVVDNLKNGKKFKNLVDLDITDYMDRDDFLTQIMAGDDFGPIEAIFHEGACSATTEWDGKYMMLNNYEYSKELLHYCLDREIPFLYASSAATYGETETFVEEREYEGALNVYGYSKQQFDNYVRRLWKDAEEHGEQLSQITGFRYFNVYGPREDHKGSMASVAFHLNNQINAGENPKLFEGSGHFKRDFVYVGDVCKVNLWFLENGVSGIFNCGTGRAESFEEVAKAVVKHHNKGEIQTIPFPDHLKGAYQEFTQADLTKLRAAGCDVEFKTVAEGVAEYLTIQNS

In article PMC10948575, “Characterization of the ADP-β-D-manno-heptose biosynthetic enzymes from two pathogenic Vibrio strains” (Applied Microbiology and Biotechnology, 2024):

Molecular target: T1, HldDVP (Vibrio parahaemolyticus, UniProt Q87T56)
T1 construct: gene hldD
Experiment: HPLC turnover assay
Assay type: biochemical
Settings: 0.2 mM substrate, 2 mM NAD+, pH 8.0, 30 °C, 1 h

Structure (SMILES)	HPLC turnover assay
Nc1ncnc2c1ncn2[C@@H]1O[C@H](COP(=O)(O)OP(=O)(O)O[C@@H]2O[C@H]([C@H](O)CO)[C@@H](O)[C@H](O)[C@@H]2O)[C@@H](O)[C@H]1O [ADP-D,D-manno-heptose]	HldDVP could also convert ADP-D,D-manno-heptose to ADP-L,D-manno-heptose under the same assay conditions.
Nc1ncnc2c1ncn2[C@@H]1O[C@H](COP(=O)(O)OP(=O)(O)O[C@@H]2O[C@H]([C@@H](O)CO)[C@@H](O)[C@H](O)[C@@H]2O)[C@@H](O)[C@H]1O [ADP-L,D-manno-heptose]	HldDVP could also convert ADP-D,D-manno-heptose to ADP-L,D-manno-heptose under the same assay conditions.
